Results published in patent CN103110576A, “一种香菇多糖注射液制剂及其制备方法” (HEBEI KAISHENG MEDICAL TECHNOLOGY Co Ltd, priority 2013, dated 2013).

System: guinea pig [豚鼠]
Assay: Active systemic anaphylaxis test in guinea pigs
Assay type: in vivo
Details: positive control, challenge with 1% human albumin, 6 animals

For “人血白蛋白: 阳性对照:人血白蛋白(20%),广东卫伦生物制药有限公司,批号:20060824”, the “allergic reaction after challenge” value was “均呈极强阳性反应”.
